Experimental findings from patent US20020155995A1 are described below.

Amino acid sequences for entries named in this document (tags omitted). Residues count along the entry.
UniProt Q86VB7, 42-1156: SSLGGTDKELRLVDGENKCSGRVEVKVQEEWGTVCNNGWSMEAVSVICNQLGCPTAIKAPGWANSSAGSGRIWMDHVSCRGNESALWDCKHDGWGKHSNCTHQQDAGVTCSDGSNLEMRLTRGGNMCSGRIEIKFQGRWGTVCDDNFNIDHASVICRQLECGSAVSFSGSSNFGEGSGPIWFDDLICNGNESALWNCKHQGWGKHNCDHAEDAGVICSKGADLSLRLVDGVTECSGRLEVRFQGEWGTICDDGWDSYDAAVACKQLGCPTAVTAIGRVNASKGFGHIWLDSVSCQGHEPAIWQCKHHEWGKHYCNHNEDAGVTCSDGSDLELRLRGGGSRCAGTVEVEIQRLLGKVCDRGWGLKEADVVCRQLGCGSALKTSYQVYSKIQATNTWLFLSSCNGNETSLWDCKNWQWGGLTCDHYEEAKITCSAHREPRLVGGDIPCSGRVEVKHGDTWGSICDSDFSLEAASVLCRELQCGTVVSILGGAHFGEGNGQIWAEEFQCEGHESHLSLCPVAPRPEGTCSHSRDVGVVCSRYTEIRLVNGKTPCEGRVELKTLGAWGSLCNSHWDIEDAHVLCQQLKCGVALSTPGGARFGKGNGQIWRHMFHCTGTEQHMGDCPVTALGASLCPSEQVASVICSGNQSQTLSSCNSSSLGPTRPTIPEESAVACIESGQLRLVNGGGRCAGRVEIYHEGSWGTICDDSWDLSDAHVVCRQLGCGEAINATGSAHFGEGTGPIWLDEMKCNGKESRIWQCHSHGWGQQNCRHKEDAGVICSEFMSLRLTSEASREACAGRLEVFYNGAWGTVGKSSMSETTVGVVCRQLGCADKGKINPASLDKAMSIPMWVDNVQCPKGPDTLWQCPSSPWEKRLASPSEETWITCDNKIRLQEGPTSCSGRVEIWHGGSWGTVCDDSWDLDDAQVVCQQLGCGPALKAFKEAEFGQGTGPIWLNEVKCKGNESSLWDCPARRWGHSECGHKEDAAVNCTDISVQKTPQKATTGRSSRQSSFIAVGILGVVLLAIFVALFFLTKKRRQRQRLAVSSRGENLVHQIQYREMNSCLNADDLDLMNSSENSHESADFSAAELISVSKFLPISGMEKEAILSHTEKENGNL

Experiment [1] concerns the target human CD163, ligand-affinity purified from Triton X-100 solubilised human spleen, placenta and liver membranes (human) (UniProt Q86VB7). As to the kind of experiment: apparent Kd from solid phase competition on CD163 in microtiter wells.
The target is the same in experiment [2]. Briefly: solid phase competition, 125I-Hp(1-1)-Hb on CD163 in microtiter wells.

With “Hp(1-1)-Hb complex (dimeric haptoglobin-haemoglobin complex, Hb form A0) (from UniProt P00738 19-406)”, the Kd in experiment [1] was 2 nM. Further, the IC50 (usually the concentration that gives 50% inhibition) in experiment [2] worked out at 0.3 µg/mL.
